How the values were obtained:
[1] = target: T1, GST-tagged truncated LRRK2 (Homo sapiens, UniProt Q5S007); assay: LRRK2 Assay, Format 2 (Lantha Screen), WT; assay type: biochemical; details: geometric mean of 2-4 determinations unless otherwise indicated (a: >=5; b: single determination)
T1 construct: GST-tagged truncated LRRK2 from Invitrogen (Cat # PV4874); GST; purchased Invitrogen PV4874
Method: (§1) LRRK2 kinase activity was measured using Lantha Screen technology from Invitrogen. GST-tagged truncated LRRK2 from Invitrogen (Cat # PV4874) was incubated with a fluorescein-labeled peptide substrate based upon ezrin/radixin/moesin (ERM), also known as LRRKtide (Invitrogen cat # PR8976A), in the presence of a dose response of compound. Upon completion, the assay was stopped and detected with a terbium labeled anti-phospho-ERM antibody (Invitrogen, cat # PR8975A). […] Using Echo acoustic dispensing, 60 nL of compound was transferred to a low volume Corning 384-well assay plate. 3 μL of a working solution of substrate (200 nM LRRKtide, […]) prepared in assay buffer (50 mM HEPES, pH 7.5, 3 mM MgCl2, with 2 mM DTT and 0.01% Brij35 added fresh) was added to the 60 nL compound assay plate. The kinase reaction was started with […] of a working solution of LRRK2 enzyme at a concentration of […]. The final reaction concentrations were 100 nM LRRKtide, […], […] LRRK2 enzyme and a compound dose response with a top dose of 3 mM. The reaction was allowed to progress at room temperature for 30 minutes and then stopped with the addition of […] of detection buffer (20 mM Tris pH 7.6, 0.01% NP-40, 6 mM EDTA with 2 nM terbium labeled anti-phospho-ERM). After an incubation of 1 hour at room temperature, the plate was read on an Envision with an excitation wavelength of 340 nm and a reading emission at both 520 nm and 495 nm. The ratio of the 520 nm and 495 nm emission was used to analyze the data. Inhibition of mutant G2019S LRRK2 (Invitrogen cat # PV4881) was measured in the exact same method. All final concentrations of substrate ATP and enzyme were the same.

Protein sequences, listed by entry. Tags and fused reporters are not part of them. Residues count along the entry.
UniProt Q5S007, 970-2527 limits assumed: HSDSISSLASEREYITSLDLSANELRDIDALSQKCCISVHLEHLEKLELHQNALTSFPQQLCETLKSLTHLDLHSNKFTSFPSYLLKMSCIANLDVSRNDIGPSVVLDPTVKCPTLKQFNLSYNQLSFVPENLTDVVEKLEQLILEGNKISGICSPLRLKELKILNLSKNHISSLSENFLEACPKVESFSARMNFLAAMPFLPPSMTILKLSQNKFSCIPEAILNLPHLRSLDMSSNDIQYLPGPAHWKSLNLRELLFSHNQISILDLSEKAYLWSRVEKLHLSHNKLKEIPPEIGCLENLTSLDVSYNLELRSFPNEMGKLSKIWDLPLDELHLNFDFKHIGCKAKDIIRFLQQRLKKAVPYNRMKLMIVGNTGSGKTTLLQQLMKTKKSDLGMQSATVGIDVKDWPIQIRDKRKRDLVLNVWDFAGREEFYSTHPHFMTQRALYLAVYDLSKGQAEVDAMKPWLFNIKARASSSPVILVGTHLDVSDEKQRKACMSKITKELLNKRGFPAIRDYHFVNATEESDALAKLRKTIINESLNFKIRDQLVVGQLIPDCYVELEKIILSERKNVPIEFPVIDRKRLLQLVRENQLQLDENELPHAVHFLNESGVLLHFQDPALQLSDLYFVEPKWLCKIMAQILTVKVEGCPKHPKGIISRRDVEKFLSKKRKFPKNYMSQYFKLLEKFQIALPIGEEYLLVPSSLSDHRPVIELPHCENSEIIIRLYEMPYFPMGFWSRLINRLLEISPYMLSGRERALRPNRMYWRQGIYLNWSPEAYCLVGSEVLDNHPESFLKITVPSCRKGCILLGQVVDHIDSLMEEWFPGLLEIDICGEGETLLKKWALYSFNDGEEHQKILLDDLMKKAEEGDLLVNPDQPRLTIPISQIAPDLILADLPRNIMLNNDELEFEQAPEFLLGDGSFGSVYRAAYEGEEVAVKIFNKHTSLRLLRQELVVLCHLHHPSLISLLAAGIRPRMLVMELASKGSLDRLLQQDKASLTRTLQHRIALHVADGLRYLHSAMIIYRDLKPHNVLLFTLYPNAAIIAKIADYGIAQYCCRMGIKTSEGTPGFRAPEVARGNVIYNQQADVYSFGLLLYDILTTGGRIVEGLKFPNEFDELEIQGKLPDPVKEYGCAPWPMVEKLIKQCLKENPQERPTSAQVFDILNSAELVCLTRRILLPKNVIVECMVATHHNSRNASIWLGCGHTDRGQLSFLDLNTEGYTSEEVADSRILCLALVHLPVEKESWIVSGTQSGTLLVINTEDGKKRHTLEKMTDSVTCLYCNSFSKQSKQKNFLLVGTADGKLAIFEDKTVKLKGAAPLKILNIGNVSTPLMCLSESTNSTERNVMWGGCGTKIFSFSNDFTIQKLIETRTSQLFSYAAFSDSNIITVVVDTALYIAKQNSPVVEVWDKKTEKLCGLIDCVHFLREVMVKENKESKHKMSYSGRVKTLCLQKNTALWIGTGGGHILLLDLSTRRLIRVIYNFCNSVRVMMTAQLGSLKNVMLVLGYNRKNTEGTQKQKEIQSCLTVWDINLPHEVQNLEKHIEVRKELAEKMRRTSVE
UniProt Q5S007, 970-2527 G2019S limits assumed: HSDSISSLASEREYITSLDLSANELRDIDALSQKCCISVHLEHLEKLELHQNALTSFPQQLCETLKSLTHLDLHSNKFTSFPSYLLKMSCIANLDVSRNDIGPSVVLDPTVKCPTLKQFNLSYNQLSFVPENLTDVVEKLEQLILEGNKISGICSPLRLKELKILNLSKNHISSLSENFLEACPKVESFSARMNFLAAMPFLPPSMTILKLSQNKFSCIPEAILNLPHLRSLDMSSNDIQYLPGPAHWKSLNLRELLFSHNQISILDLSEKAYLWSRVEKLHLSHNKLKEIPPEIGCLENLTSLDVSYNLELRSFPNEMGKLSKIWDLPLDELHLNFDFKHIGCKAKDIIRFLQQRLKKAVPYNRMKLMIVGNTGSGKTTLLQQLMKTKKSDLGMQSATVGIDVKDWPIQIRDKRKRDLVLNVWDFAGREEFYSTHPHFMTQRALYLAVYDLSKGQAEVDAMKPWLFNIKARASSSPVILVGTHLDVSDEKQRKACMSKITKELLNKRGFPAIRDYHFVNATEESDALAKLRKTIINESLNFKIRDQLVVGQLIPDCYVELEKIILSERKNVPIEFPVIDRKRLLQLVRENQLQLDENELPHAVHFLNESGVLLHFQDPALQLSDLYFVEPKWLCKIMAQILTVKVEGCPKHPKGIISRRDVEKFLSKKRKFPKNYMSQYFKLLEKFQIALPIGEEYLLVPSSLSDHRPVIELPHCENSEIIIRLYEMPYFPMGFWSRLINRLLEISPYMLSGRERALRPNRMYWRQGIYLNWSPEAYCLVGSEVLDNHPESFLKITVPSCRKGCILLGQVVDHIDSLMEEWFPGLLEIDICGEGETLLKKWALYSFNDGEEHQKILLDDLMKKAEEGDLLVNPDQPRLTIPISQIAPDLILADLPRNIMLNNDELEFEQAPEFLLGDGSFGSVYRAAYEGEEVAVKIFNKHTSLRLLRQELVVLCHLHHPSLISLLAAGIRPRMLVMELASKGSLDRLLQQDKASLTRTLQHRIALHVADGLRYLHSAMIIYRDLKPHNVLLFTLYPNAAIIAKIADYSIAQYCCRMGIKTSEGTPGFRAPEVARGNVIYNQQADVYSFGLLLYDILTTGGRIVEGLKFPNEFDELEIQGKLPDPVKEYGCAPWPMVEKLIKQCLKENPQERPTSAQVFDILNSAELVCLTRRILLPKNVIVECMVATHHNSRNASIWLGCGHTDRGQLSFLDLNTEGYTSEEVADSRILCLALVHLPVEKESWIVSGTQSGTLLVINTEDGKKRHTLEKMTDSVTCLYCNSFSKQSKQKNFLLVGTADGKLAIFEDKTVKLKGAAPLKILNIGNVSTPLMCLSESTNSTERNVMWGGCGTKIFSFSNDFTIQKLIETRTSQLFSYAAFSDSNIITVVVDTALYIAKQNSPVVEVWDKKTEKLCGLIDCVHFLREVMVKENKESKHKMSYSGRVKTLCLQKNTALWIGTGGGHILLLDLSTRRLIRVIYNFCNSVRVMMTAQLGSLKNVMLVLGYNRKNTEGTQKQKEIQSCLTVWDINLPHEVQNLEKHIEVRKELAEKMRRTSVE

[2] = tested on: kinase selectivity mini-panel; assay: Kinase selectivity (mini-panel), further assay run, Table 5A; assay type: biochemical; details: 1 mM ATP, 1 μM drug concentration; for percent inhibition of ABL: kinase ABL; for percent inhibition of AKT: kinase AKT; for percent inhibition of AURA: kinase AURA; for percent inhibition of BTK: kinase BTK; for percent inhibition of CDK2_CyclinA: kinase CDK2_CyclinA; for percent inhibition of CHK1: kinase CHK1; for percent inhibition of CHK2: kinase CHK2; for percent inhibition of CKIIa′: kinase CKIIa′; for percent inhibition of CKIa: kinase CKIa; for percent inhibition of CaMKIIa: kinase CaMKIIa; for percent inhibition of EGFR: kinase EGFR; for percent inhibition of ERK2: kinase ERK2; for percent inhibition of EphA2: kinase EphA2; for percent inhibition of FGFR1: kinase FGFR1; for percent inhibition of GSK3b: kinase GSK3b; for percent inhibition of HGFR: kinase HGFR; for percent inhibition of IRAK4: kinase IRAK4; for percent inhibition of IRK: kinase IRK; for percent inhibition of JAK3: kinase JAK3; for percent inhibition of KDR (VEGF): kinase KDR (VEGF); for percent inhibition of LCK: kinase LCK; for percent inhibition of MARK1: kinase MARK1; for percent inhibition of MK2: kinase MK2; for percent inhibition of MLCK_sk: kinase MLCK_sk; for percent inhibition of MST2: kinase MST2; for percent inhibition of MST4: kinase MST4; for percent inhibition of PAK4: kinase PAK4; for percent inhibition of PDK1: kinase PDK1; for percent inhibition of PIM2: kinase PIM2; for percent inhibition of PKACa: kinase PKACa; for percent inhibition of PRKCB2: kinase PRKCB2; for percent inhibition of ROCKI: kinase ROCKI; for percent inhibition of SGK: kinase SGK; for percent inhibition of SRC: kinase SRC; for percent inhibition of TAO2: kinase TAO2; for percent inhibition of TIE2: kinase TIE2; for percent inhibition of TRKA: kinase TRKA; for percent inhibition of ZC1 (HGK): kinase ZC1 (HGK); for percent inhibition of p38: kinase p38
Method: The compounds were run using a commercially available kinase selectivity assay which is available from CarnaBio USA, Inc. 209 West Central St., Suite 307, Natick, Mass. 01760 USA. The compounds of Examples 3, 4, 5 and 22 were run in the assay at a concentration of 1 μM using an ATP concentration of 1 mM. Table 5A below provides kinase selectivity from a further assay run for the compounds of Examples 4, 11, 5, 104, 102 and 116.

mutant G2019S LRRK2 [3] = target: T2, mutant G2019S LRRK2 (Homo sapiens, UniProt Q5S007, G2019S); assay: LRRK2 Assay, Format 2 (Lantha Screen), G2019S mutant; assay type: biochemical; design: purchased Invitrogen PV4881; details: geometric mean of 2-4 determinations unless otherwise indicated (a: >=5; b: single determination)
Method: as §1

[4] = target: T1, GST-tagged truncated LRRK2; assay: LRRK2 Assay, Format 1 (Lantha Screen), WT; assay type: biochemical; details: geometric mean of 2-4 determinations unless otherwise indicated
Method: LRRK2 kinase activity was measured using Lantha Screen technology from Invitrogen. GST-tagged truncated LRRK2 from Invitrogen (Cat # PV4874) was incubated with a fluorescein-labeled peptide substrate based upon ezrin/radixin/moesin (ERM), also known as LRRKtide (Invitrogen cat # PR8976A), in the presence of a dose response of compound. Upon completion, the assay was stopped and detected with a terbium labeled anti-phospho-ERM antibody (Invitrogen, cat # PR8975A). […] Aliquots (3.5 μL) of the 100% DMSO dose response were mixed with 46.5 μL water then 1 μL of this mixture was added to the 3 μL substrate mix in the 384-well plate. The kinase reaction was started with 3 μL of a working solution of LRRK2 enzyme at a concentration of 4 μg/mL. […] The reaction was allowed to progress at room temperature for two hours and then stopped with the addition of 7 μL of detection buffer (20 mM Tris pH 7.6, 0.01% NP-40, 0.02% NaN3, 6 mM EDTA with 2 nM terbium labeled anti-phospho-ERM).

mutant G2019S LRRK2 [5] = target: T2, mutant G2019S LRRK2; assay: LRRK2 Assay, Format 1 (Lantha Screen), G2019S mutant

Compound: Cc1cnc(Cc2nc3cnc4ccc(Cl)cc4c3n2[C@@H]2CCO[C@H](C)C2)cn1 [Example 104, 8-Chloro-2-[(5-methylpyrazin-2-yl)methyl]-1-[(2R,4R)-2-methyltetrahydro-2H-pyran-4-yl]-1H-imidazo[4,5-c]quinoline]
- IC50 [1]: 7 nM
- percent inhibition of ABL [2]: −6.38%
- percent inhibition of AKT [2]: −2.7%
- percent inhibition of AURA [2]: 1.41%
- percent inhibition of BTK [2]: −8.43%
- percent inhibition of CDK2_CyclinA [2]: −1.29%
- percent inhibition of CHK1 [2]: 1.3%
- percent inhibition of CHK2 [2]: −4.6%
- percent inhibition of CKIIa′ [2]: −0.31%
- percent inhibition of CKIa [2]: −2.89%
- percent inhibition of CaMKIIa [2]: −0.6%
- percent inhibition of EGFR [2]: −3.75%
- percent inhibition of ERK2 [2]: −2.07%
- percent inhibition of EphA2 [2]: −10.43%
- percent inhibition of FGFR1 [2]: 17.09%
- percent inhibition of GSK3b [2]: −4.34%
- percent inhibition of HGFR [2]: −5.38%
- percent inhibition of IRAK4 [2]: −7.15%
- percent inhibition of IRK [2]: −2.45%
- percent inhibition of JAK3 [2]: 17.09%
- percent inhibition of KDR (VEGF) [2]: 12.2%
- percent inhibition of LCK [2]: 1.74%
- percent inhibition of MARK1 [2]: −2.65%
- percent inhibition of MK2 [2]: −3.44%
- percent inhibition of MLCK_sk [2]: −3.75%
- percent inhibition of MST2 [2]: 10.18%
- percent inhibition of MST4 [2]: −3.83%
- percent inhibition of PAK4 [2]: −3.01%
- percent inhibition of PDK1 [2]: −5.16%
- percent inhibition of PIM2 [2]: −6.6%
- percent inhibition of PKACa [2]: −1.49%
- percent inhibition of PRKCB2 [2]: 1.13%
- percent inhibition of ROCKI [2]: −0.53%
- percent inhibition of SGK [2]: −2.75%
- percent inhibition of SRC [2]: −1.31%
- percent inhibition of TAO2 [2]: −4.56%
- percent inhibition of TIE2 [2]: −3.92%
- percent inhibition of TRKA [2]: 17.66%
- percent inhibition of ZC1 (HGK) [2]: −5.31%
- percent inhibition of p38 [2]: −1.52%
- IC50 (mutant G2019S LRRK2 [3]): 6.14 nM

Compound: Cc1cn(Cc2nc3cnc4ccc(C#N)cc4c3n2[C@@H]2CCO[C@H](C)C2)nn1 [Example 106, 1-[(2R,4R)-2-Methyltetrahydro-2H-pyran-4-yl]-2-[(4-methyl-1H-1,2,3-triazol-1-yl)methyl]-1H-imidazo[4,5-c]quinoline-8-carbonitrile]
- IC50 [4]: 3.24 nM
- IC50 [1]: 11.6 nM
- IC50 (mutant G2019S LRRK2 [3]): 11.8 nM
- IC50 (mutant G2019S LRRK2 [5]): 2.14 nM

Compound: C[C@@H]1C[C@H](n2c(Cc3cn(C)nn3)nc3cnc4ccc(Cl)cc4c32)CCO1 [Example 107, 8-Chloro-1-[(2R,4R)-2-methyltetrahydro-2H-pyran-4-yl]-2-[(1-methyl-1H-1,2,3-triazol-4-yl)methyl]-1H-imidazo[4,5-c]quinoline]
- IC50 [4]: 2.03 nM
- IC50 [1]: 6.08 nM
- IC50 (mutant G2019S LRRK2 [3]): 5.76 nM
- IC50 (mutant G2019S LRRK2 [5]): 1.89 nM

Compound: Cc1nnc(Cc2nc3cnc4ccc(Cl)cc4c3n2[C@@H]2CCO[C@H](C)C2)s1 [Example 116, 8-Chloro-1-[(2R,4R)-2-methyltetrahydro-2H-pyran-4-yl]-2-[(5-methyl-1,3,4-thiadiazol-2-yl)methyl]-1H-imidazo[4,5-c]quinoline]
- IC50 [1]: 6.2 nM
- percent inhibition of ABL [2]: −8.45%
- percent inhibition of AKT [2]: 3%
- percent inhibition of AURA [2]: 8.57%
- percent inhibition of BTK [2]: −0.86%
- percent inhibition of CDK2_CyclinA [2]: 7.76%
- percent inhibition of CHK1 [2]: 9.11%
- percent inhibition of CHK2 [2]: 0.39%
- percent inhibition of CKIIa′ [2]: 1.67%
- percent inhibition of CKIa [2]: 4.68%
- percent inhibition of CaMKIIa [2]: 8.8%
- percent inhibition of EGFR [2]: 4.03%
- percent inhibition of ERK2 [2]: 10.33%
- percent inhibition of EphA2 [2]: 5.08%
- percent inhibition of FGFR1 [2]: 23.36%
- percent inhibition of GSK3b [2]: 2.43%
- percent inhibition of HGFR [2]: −2.04%
- percent inhibition of IRAK4 [2]: 11.9%
- percent inhibition of IRK [2]: 3.5%
- percent inhibition of JAK3 [2]: 5.86%
- percent inhibition of KDR (VEGF) [2]: 24.23%
- percent inhibition of LCK [2]: 0.41%
- percent inhibition of MARK1 [2]: 1.61%
- percent inhibition of MK2 [2]: 7.5%
- percent inhibition of MLCK_sk [2]: 5.97%
- percent inhibition of MST2 [2]: 24.53%
- percent inhibition of MST4 [2]: 8.69%
- percent inhibition of PAK4 [2]: 4.02%
- percent inhibition of PDK1 [2]: 5.49%
- percent inhibition of PIM2 [2]: 5.63%
- percent inhibition of PKACa [2]: −0.26%
- percent inhibition of PRKCB2 [2]: 22.9%
- percent inhibition of ROCKI [2]: 3.61%
- percent inhibition of SGK [2]: 3.22%
- percent inhibition of SRC [2]: 5.44%
- percent inhibition of TAO2 [2]: 6.14%
- percent inhibition of TIE2 [2]: 7.08%
- percent inhibition of TRKA [2]: 14.91%
- percent inhibition of ZC1 (HGK) [2]: −1.13%
- percent inhibition of p38 [2]: 13.76%
- IC50 (mutant G2019S LRRK2 [3]): 5.57 nM

From patent US10039753B2, “Imidazo[4,5-c]quinoline and imidazo[4,5-c][1,5]naphthyridine derivatives as LRRK2 inhibitors” (Pfizer Inc., priority 2015, dated 2018)
